Experimental data from PubChem BioAssay AID651725 (National Center for Advancing Translational Sciences (NCATS), 2012).
The list shows a part of the results, in another mix than the full data. The source made the active and inactive calls. Cut-off read from the data, not from the text of the source: active = activity change below about -65%; inconclusive = mostly about -30% to -63%; inactive = weaker than that.

Sequences of proteins named here, by UniProt entry; tags and fusion partners are left off.
UniProt Q15475, whole entry: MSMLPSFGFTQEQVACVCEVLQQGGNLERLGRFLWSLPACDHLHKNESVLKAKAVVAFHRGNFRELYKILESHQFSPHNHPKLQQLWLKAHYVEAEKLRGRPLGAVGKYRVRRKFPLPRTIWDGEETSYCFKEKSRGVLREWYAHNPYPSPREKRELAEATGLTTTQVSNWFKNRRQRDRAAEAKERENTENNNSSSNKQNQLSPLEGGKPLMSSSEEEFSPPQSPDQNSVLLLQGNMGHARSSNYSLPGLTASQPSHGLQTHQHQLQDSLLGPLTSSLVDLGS

Target: Homeobox protein SIX1 (Homo sapiens) + Protein phosphatase EYA2 (Homo sapiens) (UniProt Q15475+O00167)
Test: qHTS Assay for Inhibitors of the Six1/Eya2 Interaction
Details: AlphaScreen GST-Six1/His-Eya2 binding, biochemical; active compounds read low
Excerpt: Its expression is low or undetectable in normal adult breast tissue but the gene is over-expressed in 50% of primary breast tumors and 90% of metastatic lesions. […] Similar to Six1, Eya2 is also not expressed in most normal adult tissues, but is reexpressed in cancers. The Six1-Eya interaction is essential for proliferation during embryonic development, and both Six1 and Eya2 have been independently implicated in the same types of cancer. Because Six1 and Eya2 are embryonic genes with little expression in adult tissues, inhibitors of their expression/activity are likely to have limited side effects. Our goal is to identify inhibitors of the Six1/Eya interaction for potential cancer therapy. To this end, we have developed a homogenous AlphaScreen assay targeting the Six1/Eya interaction. We performed a large scale HTS of the Molecular Libraries Small Molecule Repository (MLSMR) to identify inhibitors of the Six1/Eya interaction as potential anti-cancer therapeutics. Compounds identified can also be used as chemical probes to better understand the biological functions of Six1 and Eya. NIH Chemical Genomics Center [NCGC] NIH Molecular Libraries Probe Centers Network [MLPCN] MLPCN Grant: DA033147 Assay Submitter (PI): Rui Zhao, University of Colorado Denver
The first step of the 5 uL AlphaScreen assay is to dispense assay buffer (50 mM Tris, pH 8.0, 300 mM NaCl, 0.05% BSA, 0.02% Tween 20, 1 mM TCEP) into a Greiner 1536 white solid bottom microtiter plate (789175-F). Five microliters is added to Column 1, 4 uL is added to Column 2 and 3 uL is added to Columns 3 through 48. A 5X protein solution (250 nM GST-Six1 protein + 500 nM His-tagged Eya2 protein) is mixed and 1 uL is dispensed to Columns 3-48. Using a 1536 pintool, 23 nL of compound is transferred to the assay plate. A solution of 5X AlphaScreen beads is mixed (50 ug/mL Glutathione linked donor beads + Nickel chelated acceptor beads) and 1 uL is dispensed to Columns 2-48. The assay plate is incubated for one hour, with a lid, at 37 deg C in the dark. The plate is read using a Perkin Elmer Envision using an AlphaScreen protocol.
% is set by controls: 0 for no effect and ±100 for the full control effect.

| Compound | activity change |
| --- | --- |
| COc1ccc(N)c([N+](=O)[O-])c1[N+](=O)[O-] | inactive: -8.93% |
| COc1ccc(OP(C)(=O)Nc2cccc(Br)c2)cc1 (centres undefined) | inactive: 2.21% |
| O=P(Nc1ccccn1)(c1ccc(Br)cc1)c1ccc(Br)cc1 | inactive: 7.54% |
| CN(C)C1(CNC(=O)c2ccc(Cl)c(S(N)(=O)=O)c2)CCCCC1 | inactive: 3.07% |
| C[C@H]1OP(=O)(Oc2ccccc2)[C@H](O)[C@H](O)[C@H]1N=[N+]=[N-] (some centres undefined) | inactive: -3.55% |
| CN(C)CCOC(=O)C(O)(c1ccccc1)C1CCCCC1 (centres undefined) | inactive: 0.699% |
| O=P(Nc1nc2ccccc2s1)(c1ccccc1)c1ccccc1 | inactive: 5.73% |
| COc1ccc(NP(C)(=O)Oc2ccccc2OC)cc1 (centres undefined) | inactive: 6.65% |
| O=[N+]([O-])c1ccc(O)c(/C=N/Nc2ccc([N+](=O)[O-])cc2[N+](=O)[O-])c1 | inactive: -9.16% |
| O=[N+]([O-])c1ccc(OP2(=O)COCCO2)cc1 (centres undefined) | inactive: 0.994% |
| CC(=O)NC(SC(=S)N(C)C)C(Cl)(Cl)Cl (centres undefined) | inactive: 1.92% |
| O=[N+]([O-])c1ncn(CCn2cnc([N+](=O)[O-])n2)n1 | inactive: 1.33% |
| Cc1cc(-c2cccc3ccccc23)c(C)cn1.O=[N+]([O-])c1cc([N+](=O)[O-])c(O)c([N+](=O)[O-])c1 | inactive: -5.31% |
| O=[As](O)(c1ccccc1)c1ccc(O)cc1 | inactive: 2% |
| C(Cc1nn[nH]n1)Cc1nn[nH]n1 | inactive: 7.08% |
| Nc1ccc([As](=O)(O)c2ccc([N+](=O)[O-])cc2)cc1 | inactive: 6.77% |
| Cc1c(C(c2ccc3c(c2)OCO3)c2c(C)n(C)n(-c3ccccc3)c2=O)c(=O)n(-c2ccccc2)n1C.O=[N+]([O-])c1cc([N+](=O)[O-])c(O)c([N+](=O)[O-])c1 | inactive: 0.25% |
| O=C(OC1CN2CCC1CC2)c1cccc(Cl)c1 (centres undefined) | inactive: -0.738% |
| CP(=O)(Nc1ccc(SC(F)(F)F)cc1)Oc1ccc(F)cc1 (centres undefined) | inactive: 5.19% |
| CC(C)C(=O)NC(Sc1ccccc1)C(Cl)(Cl)Cl (centres undefined) | inactive: 8.24% |
| O=P(Nc1nccs1)(c1ccccc1)c1ccccc1 | inactive: 1.67% |
| CCOP(C)(=S)SCC(=O)NC(C)(CC)C(=O)O (centres undefined) | inactive: 8.7% |
| c1nnnn1CCn1cnnn1 | inactive: 0.356% |
| CP(=O)(Nc1ccc2c(c1)OCCO2)Oc1ccccc1 (centres undefined) | inactive: -15.4% |
| Cc1ccccc1NP(C)(=O)Nc1ccccc1C | inactive: -2.06% |

| Compound | activity change |
| --- | --- |
| O=[N+]([O-])c1cc([N+](=O)[O-])c(C(F)(F)F)c([N+](=O)[O-])c1O | inactive: -3.96% |
| CCOc1ccc(C2=NCC(CBr)S2)cc1 (centres undefined) | inactive: 5.13% |
| O=P1(Nc2nc3ccc(Cl)cc3s2)COc2ccccc2O1 (centres undefined) | inactive: -0.0943% |
| CP(=O)(Nc1ccccc1F)Oc1ccccc1 (centres undefined) | inactive: 17.7% |
| CCc1cc(O)c([N+](=O)[O-])c(C)c1[N+](=O)[O-] | inactive: 1.52% |
| CC(C)c1ccc(OP(C)(=O)Nc2ccc(SC(F)(F)F)cc2)cc1 (centres undefined) | inactive: 1.13% |
| CC(C)(C)C(=O)NC(Sc1ccccc1)C(Cl)(Cl)Cl (centres undefined) | inactive: 11.3% |
| COC(=O)C1(C)COP(=O)(NCc2ccccc2)OC1 (centres undefined) | inactive: 6.17% |
| CC(=O)c1ccc(N2CC2c2ccncc2)cc1 (centres undefined) | inactive: 2.91% |
| N#C/C(=C\c1ccc(N(CCBr)CCBr)cc1)C(N)=O | inactive: -13.3% |
| C[C@H]1OP(=O)(Oc2ccccc2)C[C@@H]2O[C@@H]21 (some centres undefined) | inactive: 1.56% |
| C[C@@H]1C=CCP(=O)(Oc2ccccc2)O1 (some centres undefined) | inactive: 3.55% |
| Cc1ccccc1CN(C)C(=O)COC(=O)C(O)(c1ccccc1)c1ccccc1 | inactive: 9.3% |
| O=C(OCCN1CCN(CCOCc2ccccc2)CC1)C(O)(c1ccccc1)c1ccccc1 | inactive: 6.72% |
| CC(=O)Nc1ccc(Oc2c([N+](=O)[O-])cc([N+](=O)[O-])cc2[N+](=O)[O-])cc1 | inactive: -5.56% |
| CC(=O)Nc1ccc([As](=O)(O)O)c(O)c1 | inactive: 6.66% |
| CCNC(=S)/N=C(\N)N[N+](=O)[O-] | inactive: -0.0791% |
| O=C(NC1CCS(=O)(=O)C1)NP(=S)(Oc1ccccc1)Oc1ccccc1 (centres undefined) | inactive: 4.3% |
| Cc1ccc(NP(=O)(Oc2cccc(C)c2)Oc2cccc(C)c2)nc1 | inactive: 4.41% |
| CCOC(=O)c1ccc(NP(C)(=O)Oc2ccc(F)cc2)cc1 (centres undefined) | inactive: -5.17% |
| O=P1(N(CCCl)CCCl)OCCC2CCCCN21 (centres undefined) | inactive: 0.208% |
| COc1ccc(OP(C)(=O)Nc2ccc(SC(F)(F)F)cc2)cc1 (centres undefined) | inactive: -4.1% |
| CC(=O)NC(SC(=S)N(CC(C)C)CC(C)C)C(Cl)(Cl)Cl (centres undefined) | inactive: -11.9% |
| Cc1ccc(OP(=O)(Nc2ccccn2)Oc2ccc(C)cc2)cc1 | inactive: 2.36% |
